Source: US9320878B2, “Phase-transition polymeric microneedles” (priority 2008, dated 2016)
Where two headings read alike, the source gives them in different places.

Conditions: for time at which insulin release stopped / cumulative insulin release, share of total insulin loading released: PVA/dextran 80/20 patch, PBS pH 7.4, 37° C.; for cumulative insulin release, share of total insulin loading released: release stopped at 40 hours

insulin
rate and extent of insulin release against dextran content (4 freeze-thaw cycles, PVA/dextran weight ratios 100/0, 90/10 and 80/20): increased as the dextran content was increased
time at which insulin release stopped (2 freeze-thaw cycles): 40 h
cumulative insulin release, share of total insulin loading released (2 freeze-thaw cycles): 70%
time at which insulin release stopped (4 freeze-thaw cycles): 40 h
cumulative insulin release, share of total insulin loading released (4 freeze-thaw cycles): 60%
insulin release profile (cumulative and hourly) (three-layer patch (drug-loaded+drug-free+drug-loaded) by programmed casting, PVA/dextran 85/15, 1% insulin by weight in drug-loaded layer): two insulin release peaks with five hours interval
